## Ab-14 light chain CDR variants: yeast mating affinities

Target: peptide PDVDLGDISGINAS, taken from heptad repeat 2 (HR2) of SARS-CoV-2 spike.

The variants keep the heavy chain, the linker and the frameworks of Ab-14 (scFv order VH, three GGGGS repeats, VL).
VH: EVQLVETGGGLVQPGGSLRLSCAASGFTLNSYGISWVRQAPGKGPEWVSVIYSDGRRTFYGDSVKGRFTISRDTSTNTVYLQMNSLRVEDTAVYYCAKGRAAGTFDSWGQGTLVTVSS
VL: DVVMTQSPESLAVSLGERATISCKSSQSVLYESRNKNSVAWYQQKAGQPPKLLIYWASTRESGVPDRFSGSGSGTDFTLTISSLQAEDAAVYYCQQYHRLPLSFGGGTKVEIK

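The starting antibody came from a phage panning campaign against this peptide. These sequences belong to a second round, designed from the earlier measurements on random variants of the parent. Group labels follow the data file (En: ensemble of fine-tuned language models; GP: Gaussian process model; HC: hill climbing; Gen: genetic algorithm; Gibbs: Gibbs sampling; a sequence that several methods proposed may carry one label only). Affinity was read by AlphaSeq, a pooled yeast mating assay with surface-displayed partners. The frequency of each diploid, read from paired DNA barcodes, reflects how well the two displayed proteins bind. Read counts were normalised to the haploid input and turned into Kd by a linear fit to BCL2-family pairs of known affinity, for each replicate. The assay was run in six technical replicates.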

Each variant is given by its three light chain CDRs, as the data file delimits them; those of the parent are KSSQSVLYESRNKNSVA, WASTRES, QQYHRLPLS.
This list holds designs with more than six substitutions.
Values are apparent Kd, the geometric mean of the replicates that gave a signal; lower means stronger binding.
Where no diploid with the target was found in any replicate, the entry reads "nd": below detection, most likely a poor binder, though not proof of it.
In the paper, a design with two or fewer of six values counts as a poor binder.
Empty control strains, which show no peptide, gave a signal in 4% of pairings with all light chain designs; the median was 430 nM and 95% of these signals were weaker than 38 nM. No background was subtracted.
Values of this round are not directly comparable with the first-round values of the same sequences.

With KLDMNELGQSQNSSSVA / GSANKCQ / QQYFRLPLS [En_Gibbs] the result was 4.6 nM (6 of 6 replicates). With AIDSHGLGTQEYYNSIA / EESVKVR / QQYDKLPLS [En_Gibbs] the result was 19 nM (4 of 6 replicates). With KISGSVMMLQRNKNSVA / EANTRES / QQYHRLPLS [GP_Gibbs] the result was 1.2 nM (6 of 6 replicates). With RIQMGDLEGRTAWNNIA / NMEEIYR / QQYVRLPLY [En_Gibbs] the result was 3.4 nM (6 of 6 replicates). For IVSQLMLWGMHRKNSIA / EAQTRLN / QQYDRLPLM [En_Gen], the assay gave 5.7 nM (5 of 6 replicates). For KWSQSWLMESLNSASVA / HASQRES / QQYHRLPLS [GP_Gibbs], the assay gave 17 nM (5 of 6 replicates). With TISELHNQALGMRNNVA / NNQTRED / QQYDRLPLS [En_Gen] the result was 160 nM (1 of 6 replicates). The variant KYQELEPYESRNKNSVA / NASTREE / QQYHRLPLS [GP_Gibbs] showed 1.2 nM (6 of 6 replicates).

For KLLQTVMNETRNRNNVA / HMTTRED / QQYHSLPLS [En_HC], the assay gave 5.0 nM (6 of 6 replicates). The variant KLTTVTGTEKVHGNNVA / EMETRER / QQYNRLPLA [En_Gen] showed 1.6 nM (6 of 6 replicates). The variant SLAYTQHFGQAGGKAVA / EVQMREQ / QQYFRLPLG [En_Gibbs] showed 20 nM (6 of 6 replicates). For NLMSHQSELSVWKYSIA / SASIRLS / QQYFRLPLA [En_Gibbs], the assay gave 1.1 µM (1 of 6 replicates). For MISQLFNMGQFAINSVA / QASQRCE / QQYDRLPLI [En_Gen], the assay gave 110 nM (6 of 6 replicates). For IISQSMLYESATHNSIA / QTSTREE / QQYAHLPLI [En_HC], the assay gave 18 nM (6 of 6 replicates). With TISQSAQTESHNKNSVA / DLNVRGS / QQYDRLPLS [En_HC] the result was 2.1 nM (6 of 6 replicates). The variant KLQYSFMMLSRNDNSVA / DASTRES / QQYHRLPLS [GP_Gibbs] showed 500 pM (6 of 6 replicates).

The variant KSQISQWYEDRNKNSVA / SASTREE / QQYHRLPLS [GP_Gibbs] showed 1.1 nM (6 of 6 replicates). For RIMYEYDSSVDKYNAVA / QAHIRAQ / QFYNRLPLS [En_Gibbs], the assay gave 190 nM (4 of 6 replicates). The variant KLRNEAIGWYRNGASIA / DENYRVD / QQYHHLPLL [En_Gibbs] gave 42 nM (6 of 6 replicates). The variant KLQQSMLYMDRNANNVA / NASTRES / QQYHRLPLS [GP_Gibbs] gave 340 pM (6 of 6 replicates). For KLSQHVEYESRNKNSVA / NAQTRLK / QQYHRLPLS [GP_Gibbs], the assay gave 3.1 nM (6 of 6 replicates). For KVSLSVLLESRNVNAVA / EASTRES / QDYHRLPLS [GP_Gibbs], the assay gave 2.2 nM (6 of 6 replicates). The variant MISNVMNTLTREGNNVA / DLEERER / QQYFRLPLS [En_Gen] showed 36 nM (6 of 6 replicates). With SLQSEALGGNQKTSSIA / GESVAMP / QQYERLPLD [En_Gibbs] the result was 33 nM (4 of 6 replicates).

The variant KWSILDLGGDRNKNSVA / HASCREQ / QQYHRLPLS [GP_Gibbs] showed 14 nM (6 of 6 replicates). With MISQLINMGSFAINSVA / QASLRCN / QQYDRLPLT [En_Gen] the result was nd (0 of 6 replicates). The variant KLSFGELYESRNKNSVA / EASCREE / QQYHRLPLS [GP_Gibbs] gave 1.4 nM (6 of 6 replicates). The variant KIGLVTNGISFSKNSVA / EQSTRED / QQYDRLPLS [En_HC] showed 3.9 nM (6 of 6 replicates). The variant KLSYSVMLESRNKNAVA / SASTRES / QDYHRLPLS [GP_Gibbs] showed 1.1 nM (6 of 6 replicates). The variant KVSQSELYESRDANNVA / NASTREN / QQYHRLPLS [GP_Gibbs] showed 1.6 nM (6 of 6 replicates). The variant KLKTMPGEIPKEGNSIA / HAEARTP / QQYHRLPLI [En_Gibbs] gave nd (0 of 6 replicates). With YMSGQISGGWNQQEAIA / EVTYKED / QQYYQLPLS [En_Gibbs] the result was nd (0 of 6 replicates).

For KLGDMVHTESRNHNSIA / DMRTRES / QQYYRLPLS [En_HC], the assay gave 510 pM (6 of 6 replicates). The variant KLMQEQEYQSRMKNSVA / HASERES / QQYHRLPLS [GP_Gibbs] showed 3.3 nM (6 of 6 replicates). The variant KLSMLTEMEHVNRNSVA / ELVTRIS / QQYNRLPLS [En_Gen] gave 72 nM (6 of 6 replicates). The variant KLSQSWPGEQRNKNSVA / SASTREQ / QQYHRLPLS [GP_Gibbs] showed 1.2 nM (6 of 6 replicates). With KMVKAKSEGDRHAANVA / NANKATD / QQYYRLPLA [En_Gibbs] the result was 1.9 nM (6 of 6 replicates). The variant KLNISVGYEQRNKNSVA / EASTRED / QQYHRLPLS [GP_Gibbs] showed 1.4 nM (6 of 6 replicates). The variant KIGMTLNQLMRKKNNVA / DLVEREK / QQYFRLPLS [En_Gen] showed 16 nM (6 of 6 replicates). The variant KLWGRCMDEELINNSIA / NGRLAVQ / QQYDRLPLS [En_Gibbs] showed 37 nM (6 of 6 replicates).

The opening 6 entries, copied out:

| CDR-L1 | CDR-L2 | CDR-L3 | group | apparent Kd | seen in |
|---|---|---|---|---|---|
| KLDMNELGQSQNSSSVA | GSANKCQ | QQYFRLPLS | En_Gibbs | 4.6 nM | 6/6 |
| AIDSHGLGTQEYYNSIA | EESVKVR | QQYDKLPLS | En_Gibbs | 19 nM | 4/6 |
| KISGSVMMLQRNKNSVA | EANTRES | QQYHRLPLS | GP_Gibbs | 1.2 nM | 6/6 |
| RIQMGDLEGRTAWNNIA | NMEEIYR | QQYVRLPLY | En_Gibbs | 3.4 nM | 6/6 |
| IVSQLMLWGMHRKNSIA | EAQTRLN | QQYDRLPLM | En_Gen | 5.7 nM | 5/6 |
| KWSQSWLMESLNSASVA | HASQRES | QQYHRLPLS | GP_Gibbs | 17 nM | 5/6 |

The measurements come from Li et al. 2023 (doi:10.1038/s41467-023-39022-2) through the FLAb antibody collection.